Reference: patent US9598387B2 (Southern Research Institute, priority 2012, dated 2017)

Protein sequences, listed by entry. Tags and fused reporters are not part of them. Lines headed by an entry give the natural chain unless they say otherwise; changes in a name come on top.
UniProt P35462, whole entry: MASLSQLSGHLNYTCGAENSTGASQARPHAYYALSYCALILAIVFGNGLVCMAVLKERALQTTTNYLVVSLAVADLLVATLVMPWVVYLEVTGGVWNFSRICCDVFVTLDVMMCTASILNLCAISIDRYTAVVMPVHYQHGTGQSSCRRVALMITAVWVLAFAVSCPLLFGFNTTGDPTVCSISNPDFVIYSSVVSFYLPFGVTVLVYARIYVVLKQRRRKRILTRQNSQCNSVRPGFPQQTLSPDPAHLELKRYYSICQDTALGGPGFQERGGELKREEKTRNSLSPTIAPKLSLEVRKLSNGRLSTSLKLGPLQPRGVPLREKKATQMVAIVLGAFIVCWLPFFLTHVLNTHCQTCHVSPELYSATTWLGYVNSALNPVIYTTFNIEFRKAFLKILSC

How the values were obtained:
[1] = target: T1, D3R (Homo sapiens (Human), UniProt P35462); experiment: β-Arrestin Recruitment Assay, U2OS DRD3; format: cell-based; details: antagonist vs EC80 8 nM PD128907, U2OS DRD3 cells; read-out: D3 IC50
Protocol: Antagonist potency of the compounds against agonist induced recruitment of β-arrestin by D3R and D2LR was measured using DiscoverRx PathHunter eXpress kits. Briefly, U2OS DRD3 (DiscoveRx #93-0591E3) and CHO-K1 DRD2L (DiscoveRx #93-0579E2) cells were seeded at a density of 2500 cells/well in 384-well white, clear-bottom plates (Corning #3707) with PathHunter Cell Plating Reagents, CP0 (DiscoveRx #93-0563R0) and CP2 (DiscoveRx #93-0563R2), respectively and incubated at 37° C. for 48 hours. For the determination of EC80 values of standard agonists, the cells were treated with multiple concentrations (starting from 190 nM, 1:3 dilution, 12 dose points) of (+)-PD128907 (DiscoveRx #92-1163) for DRD3 and Pergolide (DiscoveRx #92-1162) for DRD2L. After incubation at 37° C. for 90 min, the DiscoveRx detection reagent was added, the plates were incubated at room temperature for 60 min and the luminescence was measured on a Synergy 4 plate reader (BioTek). The data were plotted and the agonist EC80 values were calculated using GraphPad Prism software. For antagonist activity, the cells were plated as described above and treated with multiple concentrations (starting from 500 nM, half log dilution, 10 dose points) of the test compounds in Plating Reagent with 0.1% DMSO. […]

[2] = target: human D3 dopamine receptor (Homo sapiens (Human), UniProt P35462); experiment: Radioligand binding (125I-IABN competition), D3; details: HEK cell membranes expressing human D3
[3] = target: T1, D3R; experiment: [35S]GTPγS Binding Assay, CHO D3 membranes; format: biochemical; details: antagonist vs dopamine; Ke = functional Ki; read-out: CHO-hD3 Ke

- IC50 [1]: 6.75 ± 1.81 nM
- Ki [2]: 9.4 ± 2.3 nM
- Ki [3]: 18.7 ± 4.4 nM
Structure (SMILES): CC(C)(C)c1nc(N2CCN(CCCCNC(=O)C3CCC(c4ccccc4)CC3)CC2)cc(C(F)(F)F)n1 (stereo not drawn) [Compound 103, N-(4-(4-(2-(tert-Butyl)-6-(trifluoromethyl)pyrimidin-4-yl)piperazin-1-yl)butyl)-4-phenylcyclohexanecarboxamide]
